Data on 1 compound can be found in patent US20150087613A1, “Inhibition of Opioid Antinociceptive Tolerance and Withdrawal in Nociceptive Pain Therapy” (Saint Louis University, priority 2013, published 2015).

This test concerns the target T1, mA3AR (Mus musculus, UniProt Q61618).
T1 construct: expressed in transfected cells
T1 sequence (Q61618 1-319): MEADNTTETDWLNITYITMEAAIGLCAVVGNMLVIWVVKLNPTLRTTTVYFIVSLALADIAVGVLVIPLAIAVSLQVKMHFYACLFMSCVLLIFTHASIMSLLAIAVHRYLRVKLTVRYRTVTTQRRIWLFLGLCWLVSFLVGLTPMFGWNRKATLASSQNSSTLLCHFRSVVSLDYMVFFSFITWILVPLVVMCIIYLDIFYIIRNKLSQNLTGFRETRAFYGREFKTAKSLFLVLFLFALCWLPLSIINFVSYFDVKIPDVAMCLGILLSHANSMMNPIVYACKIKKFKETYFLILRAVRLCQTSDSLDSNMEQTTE
The test can be described thus: cAMP assay, inhibition of forskolin-stimulated cAMP in mA3AR-transfected HEK cells. The format is cell-based. The following applies: HEK293; read-out: % efficacy, A3.

`O[C@@H]1[C@H](O)[C@@H]2C[C@@H]2[C@H]1n1cnc2c(NCCc3ccccc3)nc(C#Cc3ccccc3)nc21` [Compound 14]: the Emax is 14.3 ± 6.1%.
